Literature values as cited in article PMC5517007.

Amino acid sequences for entries named in this document (tags omitted). Residues count along the entry.
UniProt P43626, 22-245: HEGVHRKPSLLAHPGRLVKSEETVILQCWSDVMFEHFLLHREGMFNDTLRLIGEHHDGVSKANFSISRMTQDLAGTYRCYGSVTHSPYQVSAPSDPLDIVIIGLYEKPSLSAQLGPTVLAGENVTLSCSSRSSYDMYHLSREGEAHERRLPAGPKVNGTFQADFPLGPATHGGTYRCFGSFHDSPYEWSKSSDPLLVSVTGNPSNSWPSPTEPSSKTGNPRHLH
UniProt P43628, 22-245: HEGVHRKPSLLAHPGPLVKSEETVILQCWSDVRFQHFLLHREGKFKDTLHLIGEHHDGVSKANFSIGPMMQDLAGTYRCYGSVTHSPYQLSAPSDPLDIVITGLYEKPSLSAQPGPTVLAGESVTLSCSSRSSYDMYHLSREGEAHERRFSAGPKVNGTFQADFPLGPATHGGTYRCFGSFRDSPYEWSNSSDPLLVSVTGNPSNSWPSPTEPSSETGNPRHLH

Tests used:
KIR2DL1 (Homo sapiens) = KIR2DL1 (Homo sapiens) (UniProt P43626); test: SPR
KIR2DL3 (Homo sapiens) = KIR2DL3 (Homo sapiens) (UniProt P43628); test: SPR

Kd (KIR2DL1 (Homo sapiens)): 0.43 nM | Kd (KIR2DL3 (Homo sapiens)): 0.025 nM
Substance: lirilumab
